Test results taken from patent publication US20240293405A1, “(1H-PYRROLO[2,3-B]PYRIDIN-1-YL)PYRIMIDIN-2-YL-AMINO-PHENYL-ACRYLAMIDE INHIBITORS OF EGFR FOR USE IN THE TREATMENT OF BRAIN TUMORS” (Dana-Farber Cancer Institute, Inc., priority 2021, published 2024).
Values joined by “and” are separate entries in the source; they are usually repeats but may differ in a detail not shown here. Equal values may be shown once. Read-outs that look alike come from different tables or passages of the source.

Key:
[1] = Brain and plasma exposure after single oral dose; format: in vivo, Sprague Dawley rats; details: gefitinib 50 mg/kg PO, 7 hr
in vivo = details: male, Sprague Dawley, rat, 3 mg/kg, 3 mg/kg IV infusion over 5 h; for Kp at 5 h: brain, iv, Brain/Plasma (ratios)
[2] = 3 mg/kg IV infusion over 5 h, 5 h, individual animal; Compound 2 as metabolite in Compound 1-dosed rats

Brain/Plasma (ratios) ([1]; individual animal): 0.250 and 0.142
Brain/Plasma (ratios) ([1]; mean n=3): 0.224
Kp at 5 h (in vivo; 5 h, individual animal, Compound 2 as metabolite in Compound 1-dosed rats): 0.542
Kp at 5 h (in vivo; 5 h, mean n=6, Compound 2 as metabolite): 0.55
concentration at 0.083 h (in vivo; plasma, intravenous, Plasma Concentration, 0.083 h, mean n=6, Compound 2 as metabolite): 42 ng/mL
concentration at 1 h (in vivo; plasma, intravenous, Plasma Concentration, 1 h, mean n=6, Compound 2 as metabolite): 117 ng/mL
concentration at 2 h (in vivo; plasma, intravenous, Plasma Concentration, 2 h, mean n=6, Compound 2 as metabolite): 174 ng/mL
concentration at 3 h (in vivo; plasma, intravenous, Plasma Concentration, individual animal, Compound 2 as metabolite in Compound 1-dosed rats): 225 ng/mL
concentration at 3 h (in vivo; plasma, intravenous, Plasma Concentration, mean n=6, Compound 2 as metabolite): 241 ng/mL
concentration at 5 h (in vivo; plasma, intravenous, Plasma Concentration, 5 h, mean n=6, Compound 2 as metabolite): 280 ng/mL
Brain/Plasma (ratios) [2]: 0.544 and 0.517 and 0.624
SMILES: COc1cc2ncnc(Nc3ccc(F)c(Cl)c3)c2cc1OCCCN1CCOCC1 [Gefitinib, reference compound]
